Molecules are shown by their SMILES.

The source of these data is EP4837912A1, “HETEROCYCLIC COMPOUND AND PHARMACEUTICAL COMPOSITION THEREOF” (dated 2026).

Series [1] in a line: Blood-brain distribution experiment in mice. The settings on record: IV 2 mg/kg, 0.5 h after administration. How it is done:
Male Balb/c mice were divided into groups, with 3 mice in each group, and received a single intravenous administration of the compound of the example (2 mg/kg), respectively. Animals were fasted overnight before the experiment, with food withheld from 10 hours before administration until 4 hours after administration. Each mouse was sacrificed 0.5 hours after administration, and blood and brain tissue were collected. Samples were centrifuged at 4000 rpm for 5 min at 4°C, and plasma was transferred to centrifuge tubes and stored at -80°C until analysis. Plasma samples were extracted using protein precipitation, and the extracts were analyzed by LC/MS/MS. […] Table 4: Concentration ratios of drugs in Blood-brain 0.5 h after administration in mice IV

Series [2] can be described thus: Pharmacokinetic test in mice (plasma, LC/MS/MS). How it is done:
Male Balb/c mice were divided into groups, with 3 mice in each group. The compound of Example 1 was dissolved in vehicle: 5% DMSO/10% Solutol/85% (20% Captisol in water). The compound of Example 1 was administered intravenously (2 mg/kg) and orally as a single gavage (10 mg/kg), respectively. Animals were fasted overnight before the experiment, with food withheld from 10 hours before administration until 4 hours after administration. Blood samples were collected at 0.0833, 0.25, 0.5, 1, 2, 4, 6, 8, and 24 hours after intravenous administration, and at 0.25, 0.5, 1, 2, 4, 6, 8, and 24 hours after oral administration. 0.3 mL of whole blood was collected under isoflurane anesthesia into heparinized tubes. Samples were centrifuged at 4000 rpm for 5 min at 4°C, and plasma was transferred to centrifuge tubes and stored at -80°C until analysis. Plasma samples were extracted using protein precipitation, and the extracts were analyzed by LC/MS/MS. The pharmacokinetic results are shown in Tables 2 and 3 below: Table 2: Pharmacokinetic parameters of the compound in mouse plasma after intravenous administration

Setting [3] is: mouse plasma, intravenous administration, 2 mg/kg.
Where [4] appears, read: mouse plasma, oral administration (single gavage), 10 mg/kg.

For `C#Cc1cc(C)c(-c2ccc3oc(N[C@@H]4CCCN(CCO)C4)nc3n2)c(O)c1`, in series [1], the “Concentration ratios of drugs in Brain/Blood” value is on record as 19.7%, the “Drug in brain tissue” value is on record as 54 ng/mL, the Drug in plasma stood at 275 ng/mL and the “crossing of the blood-brain barrier (in words)” value is recorded as “does not readily cross the blood-brain barrier”.

In series [2] (setting [3]), `C#Cc1cc(C)c(-c2ccc3oc(N[C@@H]4CCCN(C)C4)nc3n2)c(O)c1` yielded an AUC0-t of 6.954 µg·h/mL, a C0 of 1.727 µg/mL, a Cl of 0.252 L/h/kg and a T1/2 of 8.85 h. For the same compound, in series [2] (setting [4]), the AUC0-t is 31.402 µg·h/mL, the maximum concentration (Cmax) is 2.947 µg/mL, the T1/2 is 6.71 h and the time of peak concentration (Tmax) came to 1.33 h. In series [2] (mouse, oral 10 mg/kg vs intravenous 2 mg/kg), this compound returned a Bioavailability of 84.5%. In addition, in series [1], the “Concentration ratios of drugs in Brain/Blood” value turned out to be 73.6%, the “Drug in brain tissue” value is 348 ng/mL, the Drug in plasma came out at 473 ng/mL and the “crossing of the blood-brain barrier (in words)” value was “can cross the blood-brain barrier”.
